Results as given in ChEMBL document CHEMBL5365545, “Synthesis and Optimization of 1-Substituted Imidazo[4,5-c]quinoline TLR7 Agonists” (ACS Med Chem Lett, 2023).
Active and inactive are the calls of the source. The calls are words filed in the database; no cut-off is given here.

Columns and labels:
[1] = target: T1, Toll-like receptor 8 (Homo sapiens) (UniProt Q9NR97); experiment: Agonist activity at TLR8 in GM-CSF induced human MDM cells assessed as increase in TNFalpha release at 80 to 2000 nM measured after 6 hrs; format: cell-based; conditions: filed as agonist, dose 80-2000 nM
T1 sequence (whole entry): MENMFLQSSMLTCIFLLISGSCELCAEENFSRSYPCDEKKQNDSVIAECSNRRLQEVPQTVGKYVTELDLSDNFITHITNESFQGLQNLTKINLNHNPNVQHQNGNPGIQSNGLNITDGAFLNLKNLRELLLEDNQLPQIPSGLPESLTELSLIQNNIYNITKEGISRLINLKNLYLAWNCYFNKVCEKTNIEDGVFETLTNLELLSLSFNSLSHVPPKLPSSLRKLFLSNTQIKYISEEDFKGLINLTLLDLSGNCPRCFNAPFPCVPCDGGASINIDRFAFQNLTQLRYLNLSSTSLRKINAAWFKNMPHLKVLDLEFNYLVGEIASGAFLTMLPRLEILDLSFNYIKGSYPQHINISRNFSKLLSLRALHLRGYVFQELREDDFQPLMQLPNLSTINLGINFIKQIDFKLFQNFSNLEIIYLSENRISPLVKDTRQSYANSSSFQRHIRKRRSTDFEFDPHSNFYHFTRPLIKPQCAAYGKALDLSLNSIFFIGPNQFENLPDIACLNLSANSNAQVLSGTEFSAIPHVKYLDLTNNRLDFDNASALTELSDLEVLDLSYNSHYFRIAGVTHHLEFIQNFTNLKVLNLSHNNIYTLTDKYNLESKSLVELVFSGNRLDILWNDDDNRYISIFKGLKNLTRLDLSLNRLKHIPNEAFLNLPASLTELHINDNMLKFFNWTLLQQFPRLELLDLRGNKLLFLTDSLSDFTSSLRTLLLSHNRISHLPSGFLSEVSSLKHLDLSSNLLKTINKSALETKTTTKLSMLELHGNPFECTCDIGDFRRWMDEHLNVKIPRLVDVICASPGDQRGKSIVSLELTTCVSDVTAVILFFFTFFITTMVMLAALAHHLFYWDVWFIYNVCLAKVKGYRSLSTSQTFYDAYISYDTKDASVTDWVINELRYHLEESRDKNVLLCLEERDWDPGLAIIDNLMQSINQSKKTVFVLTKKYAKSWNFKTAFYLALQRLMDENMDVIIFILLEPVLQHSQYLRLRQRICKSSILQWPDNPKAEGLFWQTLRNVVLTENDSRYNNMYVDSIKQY

[2] = target: T1, Toll-like receptor 8 (Homo sapiens); experiment: Agonist activity at TLR8 in GM-CSF induced human MDM cells assessed as increase in IL-6 release at 80 to 2000 nM measured after 6 hrs; format: cell-based; conditions: filed as agonist, dose 80-2000 nM

Activity [1]: Active | Activity [2]: Active
Compound: CCOCc1nc2c(N)nc3ccccc3c2n1CC(C)(C)O [RESIQUIMOD]
